UUG fidelity – alters start codon recognition fidelity in yeast. S. cerevisiae UUG-firefly luciferase reporter, luminescence/redox ratio. AID 602363. activity score, % at 18.7 µM. hit rate 0.13% among 350,000;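 active = replicate mean at a twofold rise or more, about +100% in these data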;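 note: firefly luciferase made from a UUG start codon reports start codon fidelity; reporter light over untreated wells divided by growth signal over untreated wells; some hits fall short of that in this replicate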
MITF act – activators of MITF-driven TRPM1 promoter activity in SK-MEL-5 cells. SK-MEL-5 TRPM1-promoter luciferase, 24 h; % of positive control, neutral wells = 0. activation, % at 12.5 µM. 300,000 tested, 0.75% active. AID 588334;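 active means mean activation of at least 80% with every replicate also reaching 80%; inconclusive means mean reaches 80% but some replicate falls short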;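 further: 0% = neutral control wells and 100% = parthenolide positive control wells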
miR122 inh – miR-122 inhibition in Huh7 cells. Huh7 miR-122 Renilla luciferase sensor, 48 h; neutral wells = 0, positive control = 100. activation (reporter increase), % at 12.5 µM. 340,000 tested, 0.3% active;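 active means mean replicate activation score at least 90 and every replicate individually at or above 90; inconclusive means only one of the two criteria met; inactive means neither criterion met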;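 further: higher luciferase means less miR-122 activity so hits act as miR-122 inhibitors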
TRPM1 prom inh – inhibitors of MITF-driven TRPM1 promoter in melanoma cells; SK-MEL-5 TRPM1 promoter luciferase, 24 h; 330,000 tested, 0.83% active; inhibition, % at 12.5 µM; AID 488899;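 active means mean inhibition across replicates of 60% or more, whatever share of single replicates reaches that level; inconclusive means some that reach 60%, reason not given; inactive means mean inhibition across replicates below 60%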
Wnt act – Wnt/beta-catenin pathway activation; 300,000 tested, 1.2% active; AID 743398; activation, % at 9.35 µM; Wnt/beta-catenin reporter cell assay, activator, plate reader; in the data active means activation above about 30%, passing the limit was not always enough; inconclusive means no clear call, values can overlap the other calls;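 further: 0% = neutral control wells and 100% = positive control wells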
PGC1a acetyl inh – lowers PGC1a acetylation signal in U2OS cells; AlphaScreen anti-acetyl-lysine; with virally co-expressed GCN5 acetyltransferase; inhibition, % at 15.6 µM; 350,000 tested, 0.17% active;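 active means every replicate shows inhibition of at least 40%; inconclusive means mean inhibition at least 40% but some replicate below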;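 further: 0% = neutral control wells and 100% = positive control wells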
* = called active by the depositor; ? = inconclusive; . = no result; [ ] = remark or other dose. In the library only some 2.1% were active in any assay of this set; here they are far more common.

SMILES	UUG fidelity	MITF act	miR122 inh	TRPM1 prom inh	Wnt act	PGC1a acetyl inh
CC(C)(C)C(=O)NC(=S)Nc1ccc(Cl)c(C(=O)O)c1	.	-4.1	.	6.3	0.4	7.7
COc1ccc(NC(=O)c2c(NC(=O)CCC(=O)O)sc(-c3ccccc3)c2C)cc1	.	2.3	.	-1.8	34.1*	.
C[C@@H]1CCCCO[C@@H](CN(C)C(=O)Nc2ccc3c(c2)OCO3)[C@@H](C)CN([C@@H](C)CO)C(=O)c2cc(NC(=O)Nc3ccc4c(c3)OCO4)ccc2O1	.	.	.	.	.	-12.4
Cc1ccc(S(=O)(=O)Nc2ccc3c(c2)C(=O)N([C@H](C)CO)C[C@@H](C)[C@H](CN(C)C(=O)Nc2ccccc2)OCCCC[C@@H](C)O3)cc1	-6.6	.	-14.2[16.7 µM]	.	.	-7.1
C[C@@H]1CN([C@@H](C)CO)C(=O)c2cc(NS(C)(=O)=O)ccc2O[C@H]1CN(C)Cc1ccc(-c2ccccc2)cc1	11.7	.	-9.6[16.7 µM]	.	.	-1.0
Cc1csc(NC(=O)c2cnccn2)n1	-13.4	.	8.5	-44.2	.	-9.6
COc1ccc2c(c1)Cc1sc(NC(=O)c3ccccc3)nc1-2	-14.1	32.8	3.1	-34.5	50.5*	8.4
O=C(Nc1ccc(C(F)(F)F)cc1)c1ccccc1Br	-19.8	66.2	10.2	-63.4	6.0	16.2
COc1ccc(NC(=O)c2ccc3[nH]c(C)c(C)c3c2)cc1	-12.0	88.1*	-11.7	-79.0	15.7	-7.9
O=C(Nc1ccc(C(F)(F)F)cc1)c1ccccc1	-13.0	99.5*	.	-93.8	21.2	.

Filtered by structure: the compounds so far with nitrogen in an aromatic ring.
SMILES	UUG fidelity	MITF act	miR122 inh	TRPM1 prom inh	Wnt act	PGC1a acetyl inh
Cc1csc(NC(=O)c2cnccn2)n1	-13.4	.	8.5	-44.2	.	-9.6
COc1ccc2c(c1)Cc1sc(NC(=O)c3ccccc3)nc1-2	-14.1	32.8	3.1	-34.5	50.5*	8.4
COc1ccc(NC(=O)c2ccc3[nH]c(C)c(C)c3c2)cc1	-12.0	88.1*	-11.7	-79.0	15.7	-7.9

(next part)
SMILES	UUG fidelity	MITF act	miR122 inh	TRPM1 prom inh	Wnt act	PGC1a acetyl inh
Cc1csc(NC(=O)c2cc(C)on2)n1	-22.2	55.1	-8.5	-51.7	39.9*	8.3
CC(=O)Nc1cccc(NC(=O)c2ccc3[nH]c(C)c(C)c3c2)c1	-6.4	32.4	-1.7	-30.5	5.3	.
COc1ccc(NC(=O)N(C)C[C@H]2Oc3c(NS(C)(=O)=O)cccc3C(=O)N([C@@H](C)CO)C[C@@H]2C)cc1	-8.8	.	-2.8[16.7 µM]	.	.	1.0
COc1ccc2c3c(n(C)c2c1)[C@@H](CO)N(C(C)=O)CC31CCN(C(=O)C2CCOCC2)CC1	.	.	.	.	.	5.0
O=C(Nc1ccc(-c2cnco2)cc1)c1ccccc1	.	85.9*	.	-84.8	21.5	.
COc1ccc(C(=O)Nc2ccccc2C(=O)Nc2ccccc2C(=O)O)cc1	-13.4	.	4.1	-39.5	0.2	-11.5
O=C(Nc1ccc(-c2cnco2)cc1)c1ccc(Cl)cc1	-10.2	.	1.1	.	-3.7	0.1
COc1ccc(C(=O)Nc2ccccc2C(N)=O)cc1	-17.2	83.0*	-5.4	-83.6	.	-9.0
COc1ccc(NC(=O)c2ccccc2)cc1	-18.3	108.1*	-3.9	-106.2	28.1	-2.1
CCOC(=O)c1ccc(NC(=O)c2ccccc2)cc1	-3.5	113.8*	3.5	-107.2	18.9	-11.9

Complete entries as entered above. Order of values: UUG fidelity	MITF act	miR122 inh	TRPM1 prom inh	Wnt act	PGC1a acetyl inh
Results for `COc1ccc(NC(=O)N(C)C[C@H]2Oc3c(NS(C)(=O)=O)cccc3C(=O)N([C@@H](C)CO)C[C@@H]2C)cc1` : -8.8	.	-2.8[16.7 µM]	.	.	1.0
Results for `CCOC(=O)c1ccc(NC(=O)c2ccccc2)cc1` : -3.5	113.8*	3.5	-107.2	18.9	-11.9

Next structures follow:
SMILES	UUG fidelity	MITF act	miR122 inh	TRPM1 prom inh	Wnt act	PGC1a acetyl inh
COCC#Cc1cnc2c(c1)C(=O)N([C@@H](C)CO)C[C@H](C)[C@@H](CN(C)C(=O)CCN1CCCCC1)O2	10.3	.	-2.1[16.7 µM]	.	.	-0.1
O=C(Nc1ccccc1F)N1C[C@@H]2[C@H](c3ccccc31)[C@H](CO)N2C(=O)Cc1ccccc1	-4.9	.	3.8[16.7 µM]	.	.	5.2
COc1ccc(C#Cc2ccc3c(c2)[C@]2(C(=O)N3)[C@H](C(=O)N3CCN(c4ncccn4)CC3)[C@H]3C(=O)O[C@H](c4ccccc4)[C@H](c4ccccc4)N3[C@@H]2c2ccc(O)cc2)cc1	13.1	.	.	.	.	-2.2
CCNC(=O)C[C@@H]1CC[C@H]2[C@@H](COc3ccc(NC(=O)Nc4cccc(F)c4)cc3C(=O)N2C)O1	3.4	.	-1.0[16.7 µM]	.	.	-1.4
O=C(C[n+]1cc(-c2ccccc2)n2c1CCCCC2)c1ccc(Cl)cc1	-1.1	-12.2	-1.1	12.4	-6.5	-6.2
CC1CCC(C(C)C)C(OC(=O)C[n+]2cc(-c3ccc(Cl)cc3)n3c2CCCCC3)C1 (stereo not given)	.	-86.4	-1.2	86.6*	.	-47.4
C[C@@H]1CN([C@H](C)CO)C(=O)c2cc(NC(=O)Nc3ccccc3)ccc2O[C@H]1CN(C)Cc1ccccc1	-1.1	.	-2.5[16.7 µM]	.	.	-12.0
C(/C=C/c1ccco1)=N/N1CCN(c2ccccc2)CC1	-23.5	113.0*	10.6	-112.2	.	6.3
CSc1ccc(/C=N/n2c(C)cc(C)cc2=O)cc1	-6.1	86.5*	-10.9	-77.7	-4.6	.
C(=N\N1CCN(c2ccccc2)CC1)/c1ccccc1	-7.6	90.7*	-1.3	-82.6	-1.9	3.0
CSc1ccc(/C=N/N2CCN(C)CC2)cc1	-17.3	49.2	0.2	-48.6	32.3*	.
CN1CCN(/N=C/c2ccc(-c3ccccc3)cc2)CC1	-15.5	?	0.5	-80.9	12.4	-14.9
CCCNC(=O)N1CCC2(CC1)CN(C(=O)c1ccncc1)[C@H](CO)c1[nH]c3cc(OC)ccc3c12	.	.	.	.	.	8.5
COc1ccc(-c2cnc3c(c2)C(=O)N([C@@H](C)CO)C[C@@H](C)[C@@H](CN(C)C(=O)C2CCC2)O3)cc1	-2.8	.	-1.0[16.7 µM]	.	.	-7.7
COc1ccc(NC(=O)N(C)C[C@H]2Oc3ncc(-c4cccnc4)cc3C(=O)N([C@H](C)CO)C[C@@H]2C)cc1	10.2	.	-7.7[16.7 µM]	.	.	18.1
O=C(C[C@H]1CC[C@@H]2[C@H](COC[C@H](O)CN2CC2CCOCC2)O1)N1CCOCC1	22.3	.	73.1[16.7 µM]	.	.	-1.6
Cc1ccc(Nc2c(-c3ccccn3)nc3cccc(C)n23)cc1	-39.9	-68.5	17.4	70.6*	1.3	23.0
COc1ccc(S(=O)(=O)N[C@@H]2CC[C@@H](CC(=O)NCc3ccccc3F)O[C@H]2CO)cc1	-11.3	.	.	.	.	8.6
O=C(OCC(=O)c1cccc2ccccc12)c1ccc(CO)cc1	-7.9	136.7*	-3.7	-129.8	9.4	0.4
O=C(C[C@H]1CC[C@H]2[C@@H](COC[C@@H](O)CN2Cc2ccccc2F)O1)N[C@@H]1CCN(Cc2ccccc2)C1	-11.1	.	-0.9[16.7 µM]	.	.	-3.1
Cc1noc(C)c1NC(=O)N(C)C[C@@H]1OCCCC[C@H](C)Oc2ccc(NS(=O)(=O)c3c(C)noc3C)cc2C(=O)N([C@@H](C)CO)C[C@H]1C	56.6	.	8.2[16.7 µM]	.	.	0.5
O=[N+]([O-])c1cccc(-c2nnc(-c3ccccc3F)o2)c1	-1.1	.	.	-54.6	49.4*	.
CC(=O)c1cccc(NC(=O)Nc2ccc3c(c2)OCO3)c1	-13.7	119.5*	0.1	-124.2	2.6	8.6
Cc1ccc(NC(=O)Nc2ccc3c(c2)OCO3)c(OC(F)F)c1	-22.8	105.8*	.	-104.0	38.5*	.
O=C(Nc1ccc(S(=O)(=O)NCc2ccccc2)cc1)Nc1ccc2c(c1)OCO2	-1.0	49.7	242.6*	-39.5	-0.5	-38.3
Cc1ccc(C(=O)Nc2ccc3c(c2)OCO3)cc1Cl	-14.5	86.7*	-1.9	-75.4	46.2*	.
CCc1cccc(NC(=O)Nc2ccc3c(c2)OCO3)c1	-7.5	37.4	51.6	-35.4	9.5	-2.4
CCCNC(=O)C[C@@H]1CC[C@H]2[C@@H](COc3ccc(NC(=O)c4ccc(C(F)(F)F)cc4)cc3C(=O)N2C)O1	3.5	.	2.5[16.7 µM]	.	.	1.2
Cc1cc(F)ccc1NC(=O)Nc1ccc2c(c1)OCO2	-17.6	14.6	.	-13.8	5.6	.
